From PubChem BioAssay AID684 (PCMD, 2007)
The list shows a part of the results, in another mix than the full data. Activity calls are given as the source filed them. No stated cut-off is given here; in the data, active means inhibition above about 20% (passing the limit was not always enough); inactive means the rest.

Protein sequences, listed by entry. Tags and fused reporters are not part of them. Lines headed by an entry give the natural chain unless they say otherwise; changes in a name come on top.
UniProt P00748: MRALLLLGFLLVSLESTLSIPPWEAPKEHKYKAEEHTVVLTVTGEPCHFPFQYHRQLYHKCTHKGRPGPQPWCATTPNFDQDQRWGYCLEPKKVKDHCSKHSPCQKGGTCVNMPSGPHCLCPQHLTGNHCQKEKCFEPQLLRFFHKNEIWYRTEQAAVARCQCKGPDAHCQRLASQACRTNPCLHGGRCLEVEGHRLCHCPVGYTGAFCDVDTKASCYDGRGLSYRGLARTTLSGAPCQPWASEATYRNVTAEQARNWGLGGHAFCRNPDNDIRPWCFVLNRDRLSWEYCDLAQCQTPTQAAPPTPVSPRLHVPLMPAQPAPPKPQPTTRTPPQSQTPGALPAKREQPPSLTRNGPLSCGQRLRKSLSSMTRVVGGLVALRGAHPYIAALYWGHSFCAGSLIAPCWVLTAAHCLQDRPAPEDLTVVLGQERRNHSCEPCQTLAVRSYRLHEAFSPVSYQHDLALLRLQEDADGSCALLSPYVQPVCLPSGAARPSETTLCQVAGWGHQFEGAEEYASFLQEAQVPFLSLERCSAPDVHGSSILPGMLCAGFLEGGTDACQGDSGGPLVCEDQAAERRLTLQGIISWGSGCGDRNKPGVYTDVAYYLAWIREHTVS

Each compound was assayed against Coagulation factor XII (Homo sapiens) (UniProt P00748) (assay: human factor XIIa inhibitors, primary screen, biochemical, pooled compound mixtures, fluorogenic substrate (AID 684;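 further: 0% = enzyme without compound and 100% = no enzyme blank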)). Details: purified FXIIa, at 5 µM, active compounds read high.
With `CCc1nc2c(n1)c1c(non1O)c1c2no[n+]1[O-]` the inhibition was inactive: 8.26%. For `Cc1c2non([O-])c-2c(C)[n+](=O)[n+]1[O-]`, the inhibition was inactive: -0.35%. In the case of `COC(=O)c1cc2c(s1)N=C(c1ccccc1)N(C)P2(=O)N1CCOCC1` (stereo not given), the inhibition is reported as inactive: 1.75%. With `O=P1(Nc2nc3ccc(Cl)cc3s2)COc2ccccc2O1` (stereo not given) the inhibition was inactive: 9.23%. With `c1nnnn1CCn1cnnn1` the inhibition was inactive: -1.23%. In the case of `O=P(Nc1nccs1)(c1ccccc1)c1ccccc1`, the inhibition is reported as inactive: 19.7%. With `O=C(OC1CN2CCC1CC2)c1cccc(Cl)c1` (stereo not given) the inhibition was inactive: 12.6%. For `Cc1nn(-c2ccccc2)c2c1P(=O)(N1CCOCC1)N(C)C(c1ccccc1)=N2` (stereo not given), the inhibition was inactive: 4.2%. With `O=P1(Nc2ccc(Br)cn2)COc2ccccc2OC1` the inhibition was inactive: 2%. `Cc1ccc(OCC(=O)OC2CN3CCC2CC3)cc1` (stereo not given) was tested, and the inhibition was inactive: 4.44%. For `O=P1(Nc2ncccn2)COc2ccccc2OC1`, the inhibition was inactive: 6.57%. With `Clc1n[nH]nc1-c1nn[nH][15n]1` the inhibition was inactive: 1.26%. `O=P1(Nc2ccccn2)COc2ccccc2OC1` was tested, and the inhibition was inactive: 11.2%. `Cc1cccc(OCC(=O)OC2CN3CCC2CC3)c1` (stereo not given) was tested, and the inhibition was inactive: 0.68%. For `CCOP1(=S)c2c(C)nn(CCC#N)c2N=C(c2ccccc2F)N1C` (stereo not given), the inhibition was inactive: -0.505%. `O=P(Nc1nccs1)(c1ccccc1)c1nc2ccccc2s1` (stereo not given) was tested, and the inhibition was inactive: 3.51%. For `CCOP1(=S)c2c(C)nn(CCC#N)c2N=C(c2ccc(F)cc2)N1C` (stereo not given), the inhibition was inactive: 2.38%. `O=C(OC1CN2CCC1CC2)C12CC3CC(CC(C3)C1)C2` (stereo not given) was tested, and the inhibition was inactive: 8.94%. In the case of `O=C(COc1ccccc1)OC1CN2CCC1CC2` (stereo not given), the inhibition is reported as inactive: 0.435%. For `COP1(=S)c2c(C)nn(CCC#N)c2N=C(c2ccc(F)cc2)N1C` (stereo not given), the inhibition was inactive: 0.42%.
